The target in this assay is Proteinase K (Parengyodontium album, UniProt P06873). Nature of the assay: In vitro proteinase K inhibition assay. The class given is biochemical, Tritirachium album Limber.

Amino acid sequences for entries named in this document (tags omitted). Residues count along the entry.
UniProt P06873, 106-384: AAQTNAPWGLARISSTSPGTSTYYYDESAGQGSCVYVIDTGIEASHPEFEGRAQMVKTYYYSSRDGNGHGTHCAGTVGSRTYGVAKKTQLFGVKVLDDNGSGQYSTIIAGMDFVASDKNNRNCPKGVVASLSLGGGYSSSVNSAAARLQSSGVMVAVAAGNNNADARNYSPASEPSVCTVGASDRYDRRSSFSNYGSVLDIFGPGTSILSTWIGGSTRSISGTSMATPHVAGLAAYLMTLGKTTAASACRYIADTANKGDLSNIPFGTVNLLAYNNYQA

Each structure is given as a SMILES string.

For the molecule `O=S(=O)(F)Cc1ccccc1` [Phenylmethyl sulfonyl fluoride, reference compound], 120 ± 14 nM corresponded to half-maximal inhibition (IC50).

Values taken from PMC11492202 (RSC Advances, 2024).
